# Measured affinities in a library of Ab-14 light chain variants

Data: MIT Lincoln Laboratory AlphaSeq set, Li et al. 2023, doi:10.1038/s41467-023-39022-2, as distributed in FLAb.

Antigen: PDVDLGDISGINAS, a 14-residue peptide of the SARS-CoV-2 spike HR2 region.

Parent scFv Ab-14: VH joined to VL by the linker GGGGSGGGGSGGGGS. Changes lie in the light chain CDRs alone.
VH: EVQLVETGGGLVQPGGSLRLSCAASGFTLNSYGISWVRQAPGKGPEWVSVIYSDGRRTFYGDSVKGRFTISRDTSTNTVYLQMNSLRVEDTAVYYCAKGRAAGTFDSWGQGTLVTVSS
VL: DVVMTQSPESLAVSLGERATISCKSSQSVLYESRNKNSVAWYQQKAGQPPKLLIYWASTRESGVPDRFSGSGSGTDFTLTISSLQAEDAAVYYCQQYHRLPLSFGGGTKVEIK

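Phage display of a naive human antibody library on the peptide gave the parent. These sequences belong to a second round, designed from the earlier measurements on random variants of the parent. Group labels follow the data file (Ctrl: baseline library sampled from a position-specific scoring matrix, with some repeated check sequences; GP: Gaussian process model; Gen: genetic algorithm; a sequence that several methods proposed may carry one label only). AlphaSeq pools MATa yeast showing the antibodies with MATalpha yeast showing the peptide. Mating (16 h, 30 °C) was followed by selection of diploids and sequencing of their barcodes. Scores were corrected for input abundance and mapped to Kd with protein pairs of known affinity run in the same pool. The assay was run in six technical replicates.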

Substitutions are numbered in sequence along the VL above, starting at 1 (not Kabat).
Affinities are written as log10 Kd with Kd in nM; a lower number is a better binder.
A mean of the replicates is given; it leaves out those without a signal.
"n.d." means that the variant was in the library but no mating with the target was seen in that replicate; the authors take this as a sign of poor binding, and no number exists.
As a blank, each scFv also met three strains without target: over all light chain designs, 4% of these pairings were detected, typically at 2.64 and seldom below 1.59. Also given: how often the same scFv was detected with the empty control strains, with their mean in brackets.

changes	group	replicates, log10 nM	mean, log10 nM	empty controls
Y97V	Ctrl	n.d. n.d. n.d. 3.30 2.60 3.71	3.20	0/18
S25L L30I E32L N37I	Ctrl	n.d. n.d. n.d. 2.21 n.d. n.d.	2.21	0/18
S26K R34S W56E	Ctrl	0.19 0.29 0.37 0.04 0.17 0.11	0.19	3/18 (3.21)
Q27C S28L L30I T59M S103Y	Ctrl	n.d. n.d. n.d. n.d. n.d. n.d.	n.d.	0/18
S25L V29H R34S	Ctrl	0.55 0.10 0.15 0.10 0.81 1.18	0.48	0/18
Y31M E32N W56S	Ctrl	0.39 0.35 -0.10 0.44 0.22 0.41	0.28	0/18
N37R H98W	Ctrl	n.d. 1.43 1.68 2.58 2.00 1.73	1.88	0/18
L30F R99N	Ctrl	n.d. 2.61 1.23 2.33 n.d. 1.97	2.04	1/18 (1.34)
K36L S62Q	Ctrl	n.d. n.d. n.d. n.d. n.d. 1.60	1.60	0/18
T59Q H98A	Ctrl	1.37 1.83 1.33 0.85 1.11 1.24	1.29	1/18 (1.64)
K36A S103A	Ctrl	n.d. n.d. n.d. n.d. 1.93 n.d.	1.93	0/18
S26M R34G W56Q T59F S62E	Ctrl	-0.48 -0.08 0.98 0.00 -0.41 0.42	0.07	0/18
S25C S28E S33A R34A K36H S62Q	Ctrl	1.01 0.88 1.24 0.51 1.57 n.d.	1.04	0/18
E32P W56K H98G R99K	Ctrl	n.d. 2.70 1.39 n.d. 1.96 n.d.	2.02	0/18
S33D W56E S62R L100I	Ctrl	1.23 1.12 1.02 0.92 0.92 0.98	1.03	1/18 (2.19)
S33W R34E A57C Q96T	Ctrl	n.d. n.d. n.d. n.d. n.d. n.d.	n.d.	1/18 (1.83)
Q27P Q95I H98Q R99K	Ctrl	n.d. n.d. n.d. n.d. n.d. n.d.	n.d.	0/18
S25N S33E	Ctrl	2.11 n.d. n.d. n.d. n.d. n.d.	2.11	0/18
V29W W56H S62D P101E	Ctrl	n.d. n.d. n.d. n.d. n.d. n.d.	n.d.	0/18
S25Q S26K W56E A57S L100I	Ctrl	0.62 0.94 0.39 -0.16 0.80 0.26	0.48	0/18
S25A T59M H98S P101G S103F	Ctrl	n.d. n.d. n.d. n.d. n.d. n.d.	n.d.	0/18
K24A W56E S62N	Ctrl	0.72 0.45 0.49 0.65 0.89 0.70	0.65	2/18 (2.35)
K24S S25L W56H P101E	Ctrl	n.d. n.d. n.d. n.d. n.d. n.d.	n.d.	0/18
L30S T59Y	Ctrl	1.95 1.98 1.79 n.d. 1.48 2.27	1.90	0/18
Q27H T59K	Ctrl	n.d. n.d. n.d. n.d. 2.71 n.d.	2.71	1/18 (2.48)
S26M Q96D	Ctrl	n.d. 1.54 1.23 2.76 n.d. 3.16	2.17	0/18
N35H A57G E61M	Ctrl	2.20 3.23 2.01 1.71 1.79 1.91	2.14	1/18 (2.55)
S25D E32S R34N	Ctrl	1.75 2.52 1.94 1.06 1.55 2.06	1.81	1/18 (3.71)
V39I	Ctrl	n.d. n.d. n.d. 2.91 n.d. 1.90	2.41	0/18
S26Q Y31N K36I N37Q W56H E61P S62P Y97P L102E	Ctrl	n.d. n.d. n.d. n.d. n.d. n.d.	n.d.	1/18 (1.58)
S28Q T59E Q95F	Ctrl	n.d. n.d. n.d. n.d. n.d. n.d.	n.d.	0/18
S25H N37D W56A	Ctrl	0.12 0.25 -0.23 -0.11 0.07 0.11	0.04	0/18
Q27N Y31F W56G S62Q	Ctrl	-0.13 -0.06 -0.39 -0.39 -0.27 -0.13	-0.23	0/18
L30P Y31E P101W	Ctrl	1.40 2.29 n.d. 1.98 n.d. n.d.	1.89	0/18
V29W R60H	Ctrl	n.d. n.d. n.d. n.d. n.d. n.d.	n.d.	0/18
K24S S26Q S33R R34N	Ctrl	2.86 2.28 n.d. 2.60 3.72 3.78	3.05	0/18
S25F Q27A N35Y S62E	Ctrl	0.62 1.60 1.30 0.53 0.59 1.66	1.05	0/18
S25V W56G	Ctrl+GP_Gen	-0.52 -0.72 -0.77 -0.72 -0.64 -0.54; 0.23 -0.05 -0.17 -0.30 -0.07 0.10	-0.35	2/36 (3.75)
V29N Y31T W56Y Q96L	Ctrl	n.d. 1.97 1.26 1.70 1.78 0.77	1.50	1/18 (3.69)
S25D W56D S58N	Ctrl	0.31 0.19 0.05 -0.06 0.08 0.47	0.18	1/18 (2.45)
Q27L R34Q K36H W56N R99V	Ctrl	0.75 0.46 0.66 0.46 0.77 0.60	0.62	2/18 (2.66)

Values of this round are not directly comparable with the first-round values of the same sequences.
Where one sequence has several entries in the source, the replicates are listed entry by entry, parted by semicolons.
The parent sequence was in this pool as ten entries: three were never detected, three once, and four in most replicates, with averages from 0.34 to 2.37.
In the paper, a design with two or fewer of six values counts as a poor binder.